In PubChem BioAssay AID449723 (Johns Hopkins Ion Channel Center, 2010) one finds outcome data, which are given here for three compounds.

The list shows a part of the results, in another mix than the full data. Calls of active or inactive are those of the source.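 Rule for the calls: active = hit in primary screen, with calcium signal over 5 SD above buffer well mean in both duplicates; inactive = the rest.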

This assay in a line: nonspecific calcium rise without TRPC4 – cell-based, HEK293 mu-opioid receptor line, counter-screen for TRPC4 activator project, confirmation (AID 449723).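 Note: counter screen cells carry the mu-opioid receptor alone and lack TRPC4.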 To be noted: HEK293 mu-opioid cells, Fluo-4 calcium fluorescence; at 10 µM.
For the compound `CCN(CC)CCCOC(=O)C(O)(c1ccccc1)c1ccccc1`, the outcome was inactive.

Regarding `CN(C)C1(CNC(=O)c2ccc(Cl)c(S(N)(=O)=O)c2)CCCCC1`, the result was inactive.

For `CN(C)CCOC(=O)C(O)(c1ccccc1)C1CCCC1` (stereo not drawn), the result was inactive.
